Measured values as given in ChEMBL document CHEMBL6078647 (J Med Chem, 2024).

How the values were obtained:
Type in all cases: functional, cell membranes
[1] = biological target: T1, Type-1 angiotensin II receptor (Homo sapiens, UniProt P30556); assay: Antagonist activity at Flag-tagged AT1R (unknown origin) extracted from HEK293 cell membrane co expressing YPET-ARRB1 assessed as beta-arrestin 1 recruitment using NanoGlo as substrate preincubated for 30 mins followed by substrate addition for 10 mins by BRET assay
[2] = biological target: T1, Type-1 angiotensin II receptor; assay: Antagonist activity at Flag-tagged AT1R (unknown origin) extracted from HEK293 cell membrane co expressing YPET-ARRB2 assessed as beta-arrestin 2 recruitment using NanoGlo as substrate preincubated for 30 mins followed by substrate addition for 10 mins by BRET assay
[3] = biological target: T1, Type-1 angiotensin II receptor; assay: Antagonist activity at Flag-tagged AT1R (unknown origin) extracted from HEK293 cell membrane assessed as increase in intracellular calcium incubated for 30 mins by microplate reader analysis

EC50 [1]: Not_determined
EC50 [2]: Not_determined
EC50 [3]: Active
Structure (SMILES): CCCCc1nc(Cl)c(CO)n1Cc1ccc(-c2ccccc2-c2nnn[nH]2)cc1 [LOSARTAN]
